## Apparent affinities of Ab-14 variants for a coronavirus HR2 peptide

Target peptide (SARS-CoV-2 spike, HR2 region): PDVDLGDISGINAS

Parent scFv Ab-14: VH joined to VL by a (GGGGS)3 linker. Changes lie in the heavy chain CDRs alone.
VH: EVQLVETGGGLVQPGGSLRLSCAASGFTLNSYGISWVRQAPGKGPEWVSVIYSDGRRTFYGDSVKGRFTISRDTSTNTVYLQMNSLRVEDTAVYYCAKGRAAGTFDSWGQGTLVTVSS
VL: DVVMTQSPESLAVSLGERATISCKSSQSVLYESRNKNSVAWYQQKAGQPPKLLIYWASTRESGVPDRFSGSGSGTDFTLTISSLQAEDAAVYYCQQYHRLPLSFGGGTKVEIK

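These sequences belong to a second round, designed from the earlier measurements on random variants of the parent. Several design methods are mixed in this list. The assay is AlphaSeq: two haploid yeast populations carry antibody and antigen on their surface. Mating (16 h, 30 °C) was followed by selection of diploids and sequencing of their barcodes. A regression on co-assayed BCL2-family reference pairs converts the normalised counts of each replicate to an apparent Kd. The assay was run in six technical replicates.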

The parent's heavy chain CDRs are GFTLNSYGIS, VIYSDGRRTFYGDSVK, GRAAGTFDS; each variant's own CDRs replace them letter for letter. Variants here have more than six changes. Values are apparent Kd, the geometric mean of the replicates that gave a signal; lower means stronger binding. An entry "no signal" has no value in the source: the pair was not observed among the diploids in any replicate. This suggests poor binding but is not conclusive. Values of this round are not directly comparable with the first-round values of the same sequences. The authors' rule: three or more of the six replicates give a measured affinity, fewer mean a poor binder. As a blank, each scFv also met three strains without target: over all heavy chain designs, 1% of these pairings were detected, typically at 120 nM and seldom below 7.0 nM. Also given: how often the same scFv was detected with the empty control strains.

For GGDIQEYGIS / VIYADGQRAYYADAVK / GNIGAIFSD, the assay gave 620 pM (6 of 6 replicates; controls 0 of 18). For GFDLDEYGIS / VIYADGMRTAYADSVK / GQNAGTFDM, the assay gave 970 pM (6 of 6 replicates; controls 0 of 18). Variant GFDLNEYGIS / VIYADGMRTAYADDVK / GSNAGTFDT showed 210 pM (6 of 6 replicates; controls 0 of 18). Variant GFDLNEYGIS / VIYADGRRTFYADSVK / GNVAGTFFS showed 310 pM (6 of 6 replicates; controls 1 of 18). For GFDLNEYGIS / VIYADGKRKAYADSVK / GTNAGTFDV, the assay gave 180 pM (6 of 6 replicates; controls 0 of 18). Variant GFDLNEYGIS / VIYADGSRTAYVDSVK / GNVAGTFDL showed 400 pM (6 of 6 replicates; controls 0 of 18).

Variant GFDLDEYGIS / VIYADGMRTAYTDNVK / GENAGTFDV showed 460 pM (6 of 6 replicates; controls 0 of 18). With GFDLNEYGIS / VIYADGKRSAYADSVK / GNVAGTFDL the result was 390 pM (6 of 6 replicates; controls 0 of 18). Variant GFNLEEYGIS / VIYADGKRTFYIDGVK / GTWYVFGLG showed no signal (0 of 6 replicates; controls 0 of 18). For GFDLDEYGIS / VIYADGKRTAYADDVK / GENAGTFDM, the assay gave 600 pM (6 of 6 replicates; controls 0 of 18). For GFDLNEYGIS / VIYADGMRTAYANDVK / GQNAGTFDV, the assay gave 340 pM (6 of 6 replicates; controls 0 of 18). With GFSLDEYGIS / VIYADGVRKSYMDSVK / GNITGTLFA the result was 170 nM (1 of 6 replicates; controls 1 of 18).

Variant GFSLDEYGIS / VIYADGQRKSYTDNVK / GYQGSRVSL showed no signal (0 of 6 replicates; controls 0 of 18). With GFDLNEYGIS / VIYADGKRTQYIDSVK / GETAGTFDS the result was 700 pM (6 of 6 replicates; controls 0 of 18). With GFDLNEYGIS / VIYADGVRTAYTDSVK / GEVAGTFDL the result was 1.1 nM (6 of 6 replicates; controls 0 of 18). Variant GFDLNEYGIS / VIYADGVRKAYADSVK / GENAGTFDM gave 330 pM (6 of 6 replicates; controls 0 of 18). With GFDLNEYGIS / VIYADGQRTAYADSVK / GHNAGTFDV the result was 240 pM (6 of 6 replicates; controls 0 of 18). Variant GFDLNEYGIS / VIYADGRRTFYADSVK / GENAGTILV showed no signal (0 of 6 replicates; controls 0 of 18).

Variant GFDLNEYGIS / VIYADGQRTAYADSVK / GKNAGTFDS showed 500 pM (6 of 6 replicates; controls 0 of 18). For GFDLNEYGIS / VIYADGQRVFYHDNVK / GQLNVVVNA, the assay gave no signal (0 of 6 replicates; controls 0 of 18). Variant GFNLDEQGIS / VIYADGVRCSYAQSVK / GKSSGFIDV showed 67 nM (1 of 6 replicates; controls 0 of 18). With GFDLNEYGIS / VIYADGKRTAYADSVK / GQVAGTFDS the result was 320 pM (6 of 6 replicates; controls 0 of 18). Variant GFDLREYGIS / VIYADGRRVAYNDKVK / GELTGTFDQ showed 26 nM (1 of 6 replicates; controls 0 of 18). Variant GFDLGEYGIS / VIYADGSRVSYAQKVK / GKNDAISSV gave no signal (0 of 6 replicates; controls 0 of 18).

With GFALDEYGIS / VIYADGSRTVYAGDVK / GMLGVNFTM the result was no signal (0 of 6 replicates; controls 0 of 18). Variant GFDLNEYGIS / VIYADGRRTAYIDSVK / GHAAGTFDT gave 220 pM (6 of 6 replicates; controls 0 of 18). With GFNLNEYGIS / VIYADGRRTFYSDSVK / GEMGGTFDV the result was 1.4 nM (6 of 6 replicates; controls 1 of 18). Variant GFDLNEYGIS / VIYADGMRQAYADSVK / GQNAGTFDV gave 110 pM (6 of 6 replicates; controls 0 of 18). Variant GFDLQEYGIS / VIYADGTREAYSEKVK / GQLAGYFMF gave no signal (0 of 6 replicates; controls 1 of 18). Variant GFDLNEYGIS / VIYADGMRTAYADNVK / GQTAGTFDL gave 420 pM (6 of 6 replicates; controls 0 of 18).

Variant GFDLNEYGIS / VIYADGRRTFYSDKVK / GNNGGTFDI gave 930 pM (6 of 6 replicates; controls 0 of 18). For GFDLNEYGIS / VIYADGRRKAYADSVK / GNQAGTFDV, the assay gave 1.2 nM (6 of 6 replicates; controls 0 of 18). With GFDLDQYGIS / VIYADGQRTQYANDVK / GKYAGSMLS the result was no signal (0 of 6 replicates; controls 0 of 18). With GFNLNEYGIS / VIYADGRRTFYADSVK / GQTAGTFIM the result was no signal (0 of 6 replicates; controls 0 of 18). Variant GFDLNEYGIS / VIYADGKRTFYSDSVK / GEAAGTFDV gave 2.8 nM (6 of 6 replicates; controls 0 of 18). Variant GFEIQEFGIS / VIYADGFRTNYAENVK / GTLAGTFTT showed 12 nM (2 of 6 replicates; controls 0 of 18).

For GFDLDEYGIS / VIYADGRRTAYADSVK / GEAAGTFDS, the assay gave 650 pM (6 of 6 replicates; controls 0 of 18). For GFDLDEYGIS / VIYADGMRTAYADSVK / GENGGTFDV, the assay gave 1.4 nM (6 of 6 replicates; controls 0 of 18).

For reference, 4 entries of the list once more:

{"CDR-H1": "GFDLNEYGIS", "CDR-H2": "VIYADGRRTFYADSVK", "CDR-H3": "GNVAGTFFS", "Kd": "310 pM", "detected": "6 of 6", "signal with controls": "1 of 18"}
{"CDR-H1": "GFALDEYGIS", "CDR-H2": "VIYADGSRTVYAGDVK", "CDR-H3": "GMLGVNFTM", "Kd": "no signal", "detected": "0 of 6", "signal with controls": "0 of 18"}
{"CDR-H1": "GFNLEEYGIS", "CDR-H2": "VIYADGKRTFYIDGVK", "CDR-H3": "GTWYVFGLG", "Kd": "no signal", "detected": "0 of 6", "signal with controls": "0 of 18"}
{"CDR-H1": "GFSLDEYGIS", "CDR-H2": "VIYADGQRKSYTDNVK", "CDR-H3": "GYQGSRVSL", "Kd": "no signal", "detected": "0 of 6", "signal with controls": "0 of 18"}

Reference: Li et al. 2023, doi:10.1038/s41467-023-39022-2. File: FLAb, binding data.